In ChEMBL document CHEMBL5445981, “Affinity On-target Cellular Literature for EUbOPEN Chemogenomic Library” (2024):
Blank lines part the entries; values can stand above or below the molecule they belong to.

Sequences of proteins named here, by UniProt entry; tags and fusion partners are left off. A change or cut given only in a name is not applied to a line headed by its entry.
UniProt P49760, whole entry: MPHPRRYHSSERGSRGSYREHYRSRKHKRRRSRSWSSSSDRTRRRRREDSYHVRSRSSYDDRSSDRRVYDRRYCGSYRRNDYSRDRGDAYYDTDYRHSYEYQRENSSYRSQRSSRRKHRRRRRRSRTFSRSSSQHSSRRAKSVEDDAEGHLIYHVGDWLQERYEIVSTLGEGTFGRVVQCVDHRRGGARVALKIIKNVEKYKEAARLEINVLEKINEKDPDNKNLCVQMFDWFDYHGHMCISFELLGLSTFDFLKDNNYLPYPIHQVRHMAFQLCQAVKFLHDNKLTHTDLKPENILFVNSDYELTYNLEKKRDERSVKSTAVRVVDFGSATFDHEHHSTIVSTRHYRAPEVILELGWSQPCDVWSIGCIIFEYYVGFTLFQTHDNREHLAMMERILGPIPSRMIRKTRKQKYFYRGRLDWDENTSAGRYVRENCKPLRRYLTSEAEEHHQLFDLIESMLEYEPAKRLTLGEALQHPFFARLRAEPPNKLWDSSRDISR
UniProt P49759: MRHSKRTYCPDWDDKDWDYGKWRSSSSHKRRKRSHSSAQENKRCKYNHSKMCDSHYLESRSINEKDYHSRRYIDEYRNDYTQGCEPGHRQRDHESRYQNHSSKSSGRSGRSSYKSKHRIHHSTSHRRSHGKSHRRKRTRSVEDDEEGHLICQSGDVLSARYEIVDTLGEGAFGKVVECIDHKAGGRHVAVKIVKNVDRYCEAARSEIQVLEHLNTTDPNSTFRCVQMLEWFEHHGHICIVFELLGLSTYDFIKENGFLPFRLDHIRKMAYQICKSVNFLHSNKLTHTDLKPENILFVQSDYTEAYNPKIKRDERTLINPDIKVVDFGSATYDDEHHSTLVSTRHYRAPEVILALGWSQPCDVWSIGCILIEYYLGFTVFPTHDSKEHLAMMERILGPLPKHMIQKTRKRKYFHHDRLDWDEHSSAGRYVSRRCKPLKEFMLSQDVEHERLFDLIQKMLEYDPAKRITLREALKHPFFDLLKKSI
UniProt P31749: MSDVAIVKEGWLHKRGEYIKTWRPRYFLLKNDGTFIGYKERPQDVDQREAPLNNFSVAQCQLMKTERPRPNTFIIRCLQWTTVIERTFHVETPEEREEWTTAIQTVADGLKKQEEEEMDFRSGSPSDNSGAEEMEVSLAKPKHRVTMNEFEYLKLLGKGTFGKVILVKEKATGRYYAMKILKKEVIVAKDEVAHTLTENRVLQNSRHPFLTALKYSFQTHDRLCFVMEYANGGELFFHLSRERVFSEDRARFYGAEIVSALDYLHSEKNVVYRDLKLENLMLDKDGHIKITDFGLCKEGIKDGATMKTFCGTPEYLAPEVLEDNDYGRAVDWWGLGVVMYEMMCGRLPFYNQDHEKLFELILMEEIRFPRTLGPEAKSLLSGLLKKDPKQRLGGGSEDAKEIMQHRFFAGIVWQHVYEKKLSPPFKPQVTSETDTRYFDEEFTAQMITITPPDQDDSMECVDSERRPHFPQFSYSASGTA
UniProt Q9Y2I7: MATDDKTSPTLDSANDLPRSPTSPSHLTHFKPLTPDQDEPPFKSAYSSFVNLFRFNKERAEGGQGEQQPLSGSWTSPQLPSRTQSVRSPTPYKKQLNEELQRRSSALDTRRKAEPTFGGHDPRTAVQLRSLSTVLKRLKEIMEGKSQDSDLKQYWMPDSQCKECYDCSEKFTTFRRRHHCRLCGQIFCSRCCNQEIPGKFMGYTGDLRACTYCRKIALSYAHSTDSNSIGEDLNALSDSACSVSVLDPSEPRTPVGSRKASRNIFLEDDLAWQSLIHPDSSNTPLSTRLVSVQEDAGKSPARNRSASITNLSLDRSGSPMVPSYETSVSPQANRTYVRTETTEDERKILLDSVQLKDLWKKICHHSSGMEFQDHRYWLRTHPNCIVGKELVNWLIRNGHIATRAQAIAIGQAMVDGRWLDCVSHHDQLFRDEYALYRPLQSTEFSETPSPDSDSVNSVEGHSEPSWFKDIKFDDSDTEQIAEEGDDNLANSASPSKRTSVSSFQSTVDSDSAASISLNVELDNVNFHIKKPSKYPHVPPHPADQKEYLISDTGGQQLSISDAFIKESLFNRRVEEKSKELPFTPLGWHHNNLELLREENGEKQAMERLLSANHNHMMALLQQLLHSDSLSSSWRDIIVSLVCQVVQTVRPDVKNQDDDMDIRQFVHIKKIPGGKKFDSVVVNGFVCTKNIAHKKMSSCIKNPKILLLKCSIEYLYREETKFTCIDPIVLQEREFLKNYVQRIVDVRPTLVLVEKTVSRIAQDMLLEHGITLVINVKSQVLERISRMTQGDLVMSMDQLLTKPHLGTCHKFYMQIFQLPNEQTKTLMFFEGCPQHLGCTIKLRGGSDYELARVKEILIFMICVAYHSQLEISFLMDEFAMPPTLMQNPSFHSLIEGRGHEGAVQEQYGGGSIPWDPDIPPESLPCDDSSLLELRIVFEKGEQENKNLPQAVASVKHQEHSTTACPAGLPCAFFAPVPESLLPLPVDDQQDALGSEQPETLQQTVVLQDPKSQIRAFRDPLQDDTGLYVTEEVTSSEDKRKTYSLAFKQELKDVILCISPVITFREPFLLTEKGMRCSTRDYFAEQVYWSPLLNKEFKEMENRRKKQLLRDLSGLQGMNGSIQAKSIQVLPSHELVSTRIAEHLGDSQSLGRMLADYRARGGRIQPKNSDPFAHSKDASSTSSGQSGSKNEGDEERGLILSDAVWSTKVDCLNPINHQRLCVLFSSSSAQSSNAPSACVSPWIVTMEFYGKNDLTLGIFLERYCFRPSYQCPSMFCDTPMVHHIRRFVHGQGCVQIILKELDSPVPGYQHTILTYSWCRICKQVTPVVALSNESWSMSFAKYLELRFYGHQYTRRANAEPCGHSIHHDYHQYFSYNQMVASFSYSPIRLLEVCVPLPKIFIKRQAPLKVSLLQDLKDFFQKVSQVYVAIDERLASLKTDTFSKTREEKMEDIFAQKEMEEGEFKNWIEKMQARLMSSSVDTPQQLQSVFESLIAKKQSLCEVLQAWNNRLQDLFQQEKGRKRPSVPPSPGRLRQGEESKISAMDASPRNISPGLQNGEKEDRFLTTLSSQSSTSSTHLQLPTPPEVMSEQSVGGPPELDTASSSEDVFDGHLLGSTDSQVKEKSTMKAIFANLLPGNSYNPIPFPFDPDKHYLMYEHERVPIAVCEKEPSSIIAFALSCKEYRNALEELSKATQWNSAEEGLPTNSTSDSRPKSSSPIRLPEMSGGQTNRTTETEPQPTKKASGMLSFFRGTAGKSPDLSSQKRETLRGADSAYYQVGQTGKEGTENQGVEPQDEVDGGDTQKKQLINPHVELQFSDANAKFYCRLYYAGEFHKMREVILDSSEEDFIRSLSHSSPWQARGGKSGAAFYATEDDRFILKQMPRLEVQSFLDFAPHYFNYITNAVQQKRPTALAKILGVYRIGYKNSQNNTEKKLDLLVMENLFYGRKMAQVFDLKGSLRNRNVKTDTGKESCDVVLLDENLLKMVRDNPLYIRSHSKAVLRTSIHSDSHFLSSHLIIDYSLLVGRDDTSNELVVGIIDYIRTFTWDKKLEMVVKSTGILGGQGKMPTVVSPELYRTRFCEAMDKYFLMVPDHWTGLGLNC
UniProt P48730: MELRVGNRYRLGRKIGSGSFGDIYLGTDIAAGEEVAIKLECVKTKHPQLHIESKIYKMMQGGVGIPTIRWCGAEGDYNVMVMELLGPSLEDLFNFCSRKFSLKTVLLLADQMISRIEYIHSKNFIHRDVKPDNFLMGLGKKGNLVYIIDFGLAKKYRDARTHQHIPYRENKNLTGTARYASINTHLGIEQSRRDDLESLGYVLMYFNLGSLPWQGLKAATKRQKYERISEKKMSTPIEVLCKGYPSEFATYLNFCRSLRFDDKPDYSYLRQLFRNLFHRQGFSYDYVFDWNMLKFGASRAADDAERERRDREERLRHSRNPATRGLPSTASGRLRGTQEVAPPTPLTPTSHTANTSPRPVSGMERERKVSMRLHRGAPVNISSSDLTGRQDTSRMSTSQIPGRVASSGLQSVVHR
UniProt P49674: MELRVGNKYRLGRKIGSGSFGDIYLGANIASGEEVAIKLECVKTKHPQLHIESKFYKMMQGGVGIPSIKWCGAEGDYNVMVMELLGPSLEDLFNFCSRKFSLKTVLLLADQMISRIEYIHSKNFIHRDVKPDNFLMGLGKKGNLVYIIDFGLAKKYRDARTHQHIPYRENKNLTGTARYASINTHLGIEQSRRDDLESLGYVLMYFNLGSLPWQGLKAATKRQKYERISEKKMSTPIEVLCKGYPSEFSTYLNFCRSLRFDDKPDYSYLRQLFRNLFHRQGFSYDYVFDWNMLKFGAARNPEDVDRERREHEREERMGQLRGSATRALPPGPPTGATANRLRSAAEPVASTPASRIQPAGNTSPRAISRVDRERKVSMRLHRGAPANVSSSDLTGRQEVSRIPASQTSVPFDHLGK

What was measured:
[1] = target: Dual specificity protein kinase CLK2 (Homo sapiens, UniProt P49760); experiment: Affinity On-target Cellular interaction: (NanoBRET assay (in HEK293T cells)) EUB0000008b CLK2; type: cell-based, HEK-293T; design: mode of action Inhibitor, recommended concentration 1 uM
[2] = target: Dual specificity protein kinase CLK1 (Homo sapiens, UniProt P49759); experiment: Affinity On-target Cellular interaction: (NanoBRET assay (in HEK293T cells)) EUB0000008b CLK1; type: cell-based, HEK-293T; design: mode of action Inhibitor, recommended concentration 1 uM
[3] = target: RAC-alpha serine/threonine-protein kinase (Homo sapiens, UniProt P31749); experiment: Affinity On-target Cellular interaction: (NanoBRET assay (HEK293T cells)) EUB0001560a AKT1; type: cell-based; design: mode of action Negative control for BAY-1125976, recommended concentration 1 uM; details: hek-293t
[4] = target: 1-phosphatidylinositol 3-phosphate 5-kinase (Homo sapiens, UniProt Q9Y2I7); experiment: Affinity On-target Cellular interaction: (NanoBRET assay (HEK293T cells)) EUB0001877a PIKFYVE; type: cell-based, HEK-293T; design: mode of action Negative control for SGC-PIKFYVE, recommended concentration 100 nM
[5] = target: Casein kinase I isoform delta (Homo sapiens, UniProt P48730); experiment: Affinity On-target Cellular interaction: (Translocation Assay (CSNK1D mediated PER3 nuclear translocation in COS-7 cells)) EUB0001199aCl CSNK1D; type: cell-based, Chlorocebus aethiops; design: mode of action Inhibitor, recommended concentration 1 uM
[6] = target: Casein kinase I isoform epsilon (Homo sapiens, UniProt P49674); experiment: Affinity On-target Cellular interaction: (Translocation Assay (CSNK1E mediated PER3 nuclear translocation in COS-7 cells)) EUB0001199aCl CSNK1E; type: cell-based, Chlorocebus aethiops; design: mode of action Inhibitor, recommended concentration 1 uM

Ki [1]: 0.091 µM
Ki [2]: 0.084 µM
Structure (SMILES): Cn1cc(-c2ccc3occ(-c4cccc(-c5ccncc5)c4)c3n2)cn1

IC50 [3]: 6 µM
Structure (SMILES): NC1(c2ccc(-c3nc4c(O)ccnn4c3-c3ccccc3)cc2)CCC1

IC50 [4]: > 10 µM
Structure (SMILES): Nc1ncc2c(n1)-c1c([nH]c3ccc(C4CC4)cc13)CCCC2

EC50 [5]: 0.058 µM
EC50 [6]: 0.318 µM
Structure (SMILES): CN1Cc2nccc(-c3cn(C)nc3-c3ccc(F)cc3)c2C1=O
